Earlier results as cited in US8557989B2, “Electrochemical affinity biosensor system and methods” (priority 2003, dated 2013).

Details: U.S. Pat. No. 5,589,326

## bis(2,2′-bipyridyl) imidazole chloro osmium (III) dichloride [osmium free mediator]
  redox potential vs. Ag/AgCl: +150 mV
